# Target: T1, Tyrosine-protein kinase Mer (Homo sapiens, UniProt Q12866)
# T1 sequence (Q12866 whole entry): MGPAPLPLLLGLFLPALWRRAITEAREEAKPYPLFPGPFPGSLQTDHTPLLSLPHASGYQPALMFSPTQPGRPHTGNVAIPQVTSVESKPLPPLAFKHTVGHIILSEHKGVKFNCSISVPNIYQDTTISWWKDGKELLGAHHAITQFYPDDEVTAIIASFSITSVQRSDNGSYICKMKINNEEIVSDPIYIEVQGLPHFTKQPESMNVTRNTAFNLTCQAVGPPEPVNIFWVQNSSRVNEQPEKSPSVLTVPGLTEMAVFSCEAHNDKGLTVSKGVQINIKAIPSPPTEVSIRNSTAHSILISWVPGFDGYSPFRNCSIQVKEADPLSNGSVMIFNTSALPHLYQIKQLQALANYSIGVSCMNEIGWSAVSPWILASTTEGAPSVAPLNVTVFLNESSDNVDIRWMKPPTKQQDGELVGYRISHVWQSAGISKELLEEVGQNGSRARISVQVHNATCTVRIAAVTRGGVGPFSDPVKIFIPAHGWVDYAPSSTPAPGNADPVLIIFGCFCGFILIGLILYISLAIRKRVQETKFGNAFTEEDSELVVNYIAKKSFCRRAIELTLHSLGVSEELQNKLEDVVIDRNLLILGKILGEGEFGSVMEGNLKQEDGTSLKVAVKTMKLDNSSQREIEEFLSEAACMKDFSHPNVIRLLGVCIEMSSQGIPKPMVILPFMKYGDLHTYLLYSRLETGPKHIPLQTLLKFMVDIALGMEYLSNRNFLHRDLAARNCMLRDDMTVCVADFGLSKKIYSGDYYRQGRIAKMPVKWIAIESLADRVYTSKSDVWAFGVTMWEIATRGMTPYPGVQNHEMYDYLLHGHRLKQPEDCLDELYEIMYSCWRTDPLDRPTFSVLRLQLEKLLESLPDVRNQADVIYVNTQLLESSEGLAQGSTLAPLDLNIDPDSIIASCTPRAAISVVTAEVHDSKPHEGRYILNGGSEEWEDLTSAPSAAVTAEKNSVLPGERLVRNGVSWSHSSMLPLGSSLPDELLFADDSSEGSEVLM
# Test: Inhibition of human recombinant MER by fluorescence polarization assay
structure (smiles),measurement,value
Nc1nc(Nc2ccc3c(c2)CC[C@@H](N2CCCC2)CC3)nn1-c1cc2c(nn1)-c1ccccc1CCC2 [BEMCENTINIB],IC50,> 700 nM

# Source: ChEMBL document CHEMBL3808287, “AXL Inhibitors in Cancer: A Medicinal Chemistry Perspective” (J Med Chem, 2016)
